Shown are actives, neighbours in structure and some others; about 0.39% of the full set was active somewhere.
Rango complex inh = qHTS Assay for Inhibitors of Rango (Ran-regulated importin-beta cargo) - Importin beta complex formation; AID 540263, 2011; Rango CFP/YFP FRET sensor + importin beta, 45 min; hit rate 0.031% among 340,000; Potency, µM (doses to about 92.2 µM), for the others: top-dose inhibition of complex formation;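 also: potency is read from the fitted curve at half-maximal effect; 0% = DMSO wells and 100% = buffer wells lacking importin beta; nearly all actives have a fitted effect of over 15% in size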
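FRET biosensor (snurportin 1 IBB flanked by EYFP and cerulean), 50 nM, with compound 5 min, then 0.125 microM importin beta in PBS, 1 mM DTT, 0.02% Tween-20, 0.1% BSA. CFP/YFP ratio read after 45 min at room temperature; pre-read flags interference.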
CCT modulator = High-Throughput Screening for Modulators of Cytosolic Chaperonin Activity | activity change, % (no concentration beside the values), hits read low | purified chaperonin ATPase assay, HTRF ADP detection, 30 min | AID 651819, 2012 | hit rate 0.3% among 360,000; in the data active = activity change below about -30%; also: % is scaled to controls: 0 for no effect and ±100 for the full control effect
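TRiC (40 or 20 nM final, by batch activity) in 30 mM Tris pH 7.4, 100 mM KCl, 5 mM MgCl2, 1 mM DTT was treated with compound at 76 uM single dose, then 10 uM ATP, 30 min at 37 °C. ADP was read by HTRF Transcreener.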
Rango release inh = qHTS Assay for Inhibitors of RanGTP induced Rango (Ran-regulated importin-beta cargo) - Importin beta complex dissociation | AID 540253, 2011 | hit rate 0.071% among 340,000 | Potency, µM (doses to about 46.1 µM), without a hit: top-dose activity change, negative = inhibition | Snurportin-1 (Homo sapiens) + GTP-binding nuclear protein Ran (Homo sapiens) + Importin … | Biochemical FRET Rango-importin beta, RanGTP-induced dissociation; also: potency is read from the fitted curve at half-maximal effect; % of control where 0% means no effect; nearly all actives have a fitted effect of over 45% in size
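Rango FRET biosensor (snurportin-1 IBB flanked by N-terminal EYFP and C-terminal CFP10) at 0.1 uM, with 0.25 uM importin beta in PBS, 1mM DTT, 0.02% Tween-20, 0.1% BSA. 0.6 uM Ran, 2mM GTP and 0.2 uM RCC1 were then added for 45 min at room temperature. Inhibition read as loss of FRET rise.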
MmCpn inh = Inhibitors of TCP-1 ring complex (TRiC) of Methanococcus maripaludis (MmCpn): qHTS; Potency, µM (top dose mostly 76.9 µM), for inactives: at the top dose activity, negative = inhibition, actives largely listed as inhibitors; AID 504842, 2011; hit rate 0.031% among 330,000; purified Mm-Cpn ATPase, ADP Transcreener TR-FRET; active = well fitted inhibition curve with a large enough effect; inconclusive = small, poorly fitted or top-dose-only effect; also: potency is read from the fitted curve at half-maximal effect; % is scaled to controls: 0 for no effect and ±100 for the full control effect; nearly all actives have a fitted effect of over 80% in size
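25 nM Mm-CPN + cpd, 10 min 37°C; + 10 uM ATP, 30 min 37°C; buffer 30 mM Tris pH 7.4, 100 mM KCl, 5 mM MgCl2, 1 mM DTT; Transcreener ADP HTRF detection 30 min RT.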
Numbers without * were called inactive; u = inconclusive; x = no result; [ ] = dose if it differs, or a comment. Unless noted, calls follow the shape of the full dose curve.

#1 CCCC(C)c1nc(C(N)=O)c2[nH]c(=O)n(-c3ccc(OC)cc3OC)c2n1 (stereo unspecified)
#2 O=C1N=C(N2CCOCC2)S/C1=C\c1ccccc1OS(=O)(=O)c1ccccc1
#3 CC(=O)N1CCN(C2=NC(=O)/C(=C/c3ccc(OS(=O)(=O)c4ccccc4)cc3)S2)CC1
#4 CCCCC(CC)CN=C(N)NC(N)=NCCCCCCN=C(N)NC(N)=NCC(CC)CCCC (stereo unspecified)
#5 COc1ccc(-c2cn3c(C)c(C(=O)Nc4ccncc4)sc3n2)cc1
#6 COC(=O)C1=C(C)N(Cc2ccccc2)C(=S)N[C@H]1CCc1ccccc1
#7 CNc1oc(-c2cccs2)nc1C#N
#8 COc1ccc(Nc2oc(-c3cccs3)nc2C#N)cc1

| Compound | 1 | 2 | 3 | 4 | 5 | 6 | 7 | 8 |
| --- | --- | --- | --- | --- | --- | --- | --- | --- |
| Rango complex inh | 1% | 2% | 1% | 58µM* | u | x | 1% | u |
| CCT modulator | -78* | -4 | -79* | -4 | -3 | x | 0 | -37* |
| Rango release inh | -8% | 16% | 1% | u | -23% | x | 0% | -2% |
| MmCpn inh | 0% | -13% | -6% | u | 45µM* | -7% | -9% | -8% |

#9 COC(=O)CCCn1cc(CN2CC(N3CCCC3)CS2(=O)=O)nn1 (stereo unspecified)
#10 C#CCn1c(=NC(=O)c2cc(Cl)sc2Cl)sc2cc(S(N)(=O)=O)ccc21
#11 C#CCn1c(=NC(=O)CN2C(=O)CCC2=O)sc2cc(S(N)(=O)=O)ccc21
#12 CCCCOc1cccc(C(=O)N(Cc2ccccc2)C2CCS(=O)(=O)C2)c1 (stereo unspecified)
#13 CCCCOC(=O)Nc1ccc(S(=O)(=O)Nc2ccc([N+](=O)[O-])cc2)cc1
#14 CCCCCOC(=O)Nc1ccc(S(=O)(=O)Nc2cccc([N+](=O)[O-])c2)cc1
#15 NC(=O)c1ccccc1N/C=C/C(=O)c1ccco1
#16 O=C(/C=C/Nc1ccccc1C(F)(F)F)c1ccco1

| Compound | 9 | 10 | 11 | 12 | 13 | 14 | 15 | 16 |
| --- | --- | --- | --- | --- | --- | --- | --- | --- |
| Rango complex inh | x | 6% | 6% | -1% | 0% | -3% | u | u |
| CCT modulator | 1 | -2 | -1 | -5 | 0 | -53* | -60* | -1 |
| Rango release inh | x | 14% | 3% | -3% | -21% | 6% | u | u |
| MmCpn inh | x | 50µM* | -1% | -2% | -1% | 0% | -3% | 0% |

#17 COc1ccc(C(CNC(=O)c2cccc(S(=O)(=O)Nc3ccccc3OC)c2)N2CCCC2)cc1 (stereo unspecified)
#18 COc1ccc(C(CNC(=O)c2oc3ccc(Br)cc3c2C)N2CCCCC2)cc1 (stereo unspecified)
#19 COc1ccc(C(CNC(=O)c2oc3cc(Br)ccc3c2C)N2CCCCC2)cc1 (stereo unspecified)
#20 CCC1CCc2sc(C(=O)NCC(c3ccc(OC)cc3)N3CCCC3)cc2C1 (stereo unspecified)
#21 CCN1/C(=C/C=C/C=C/c2sc3ccccc3[n+]2CC)Sc2ccccc21
#22 O=C(CP(=O)(c1ccccc1)c1ccccc1)Nn1cnnc1
#23 CCC(=O)N1c2ccccc2[C@@H](N(C(C)=O)c2ccccc2)C[C@H]1C
#24 Oc1[nH]c2c(Cl)cc(Cl)cc2c1N=NC(=S)NCC1CCCO1 (stereo unspecified)

| Compound | 17 | 18 | 19 | 20 | 21 | 22 | 23 | 24 |
| --- | --- | --- | --- | --- | --- | --- | --- | --- |
| Rango complex inh | -1% | -2% | -1% | 58µM* | x | 2% | 0% | 1% |
| CCT modulator | -51* | -1 | 1 | -2 | x | -53* | -79* | -40* |
| Rango release inh | 0% | 1.5µM* | 11% | 30% | x | -6% | 6% | 35% |
| MmCpn inh | 0% | 3% | -10% | 2% | 32µM* | -3% | -1% | 0% |

#25 O=C(c1ccco1)N1CCC(c2nc(-c3ccccc3Cl)no2)CC1
#26 O=C(c1ccco1)N1CCC(c2nc(-c3ccc(F)cc3)no2)CC1
#27 O=C1C2=C(C(=O)c3ccccc31)C1O[C@](CCCCN3C(=O)c4ccccc4C3=O)(Cc3c1ccc1ccccc31)O2
#28 O=C(NC1CC(=O)N(c2ccc3c(c2)OCCO3)C1)N1CCCCC1 (stereo unspecified)
#29 COCc1cc(C)nc(SCC(=O)Oc2ccc(Cl)cc2)c1C#N
#30 CCOC(=O)CSc1nc(C)c(CC)c(C)c1C(N)=O
#31 CCc1ccc(NS(=O)(=O)c2cc3c4c(c2)CCN4C(=O)CC3)cc1
#32 COc1ccc(C2/C(=C(\O)c3cc(C)ccc3C)C(=O)C(=O)N2CCN(C)C)cc1OC (stereo unspecified)

| Compound | 25 | 26 | 27 | 28 | 29 | 30 | 31 | 32 |
| --- | --- | --- | --- | --- | --- | --- | --- | --- |
| Rango complex inh | 1% | 0% | x | -1% | u | -1% | 5% | -4% |
| CCT modulator | -1 | -35* | x | 3 | -3 | -62* | -61* | -80* |
| Rango release inh | -3% | -17% | x | 5% | 9.2µM* | 9% | -6% | 7% |
| MmCpn inh | 2% | 4% | 2%[15.4 µM] | -1% | -9% | 1% | 1% | 0% |

#33 COc1ccc(/C(O)=C2\C(=O)C(=O)N(CCN(C)C)C2c2cc(OC)c(OC)c(OC)c2)c(C)c1 (stereo unspecified)
#34 COc1cc(NC(=O)COc2cc3oc(=O)cc(C)c3cc2Cl)cc(OC)c1OC
#35 COc1cc(NC(=O)COc2ccc3c(C)cc(=O)oc3c2C)cc(OC)c1OC
#36 CCOC(=O)c1ccc(CN(Cc2ccccc2)S(=O)(=O)c2cccc([N+](=O)[O-])c2)cc1
#37 CC(=O)Nc1cccc(-c2cc(C)c3cc4c(cc3n2)OCO4)c1
#38 Cc1ccc(C(C#N)c2ccc3c(C(F)(F)F)cc(C(F)(F)F)nc3n2)cc1 (stereo unspecified)
#39 N#CC(c1ccccc1)c1ccc2c(C(F)(F)F)cc(C(F)(F)F)nc2n1 (stereo unspecified)
#40 CSc1cccc(N2CC(C(=O)N(Cc3nnc(-c4ccccc4Cl)o3)C3CC3)CC2=O)c1 (stereo unspecified)

| Compound | 33 | 34 | 35 | 36 | 37 | 38 | 39 | 40 |
| --- | --- | --- | --- | --- | --- | --- | --- | --- |
| Rango complex inh | 0% | 1% | 5% | -2% | u | -6% | u | 0% |
| CCT modulator | -2 | -59* | 1 | -33* | 0 | -45* | -3 | 2 |
| Rango release inh | 1% | -12% | -5% | 8% | u | -2% | -16% | -3% |
| MmCpn inh | 1% | 1% | -4% | 0% | -1% | 1% | 0% | -3% |

Reformatted with values ahead of the structure: 4 of the compounds above.
item | Rango complex inh | CCT modulator | Rango release inh | MmCpn inh | SMILES
36 | -2% | -33* | 8% | 0% | CCOC(=O)c1ccc(CN(Cc2ccccc2)S(=O)(=O)c2cccc([N+](=O)[O-])c2)cc1
37 | u | 0 | u | -1% | CC(=O)Nc1cccc(-c2cc(C)c3cc4c(cc3n2)OCO4)c1
38 | -6% | -45* | -2% | 1% | Cc1ccc(C(C#N)c2ccc3c(C(F)(F)F)cc(C(F)(F)F)nc3n2)cc1 (stereo unspecified)
39 | u | -3 | -16% | 0% | N#CC(c1ccccc1)c1ccc2c(C(F)(F)F)cc(C(F)(F)F)nc2n1 (stereo unspecified)

Continued:
#41 CCOc1ccccc1N1CC(C(=O)N(Cc2nnc(-c3ccccc3Cl)o2)C2CC2)CC1=O (stereo unspecified)
#42 Cc1ccnc(NS(=O)(=O)c2ccc(NC(=O)CC(C)c3ccccc3)cc2)n1 (stereo unspecified)
#43 COc1ccc(C2C3=C(CCCC3=O)Nc3nc(SCc4ccccc4)nn32)cc1OC (stereo unspecified)
#44 CC(=O)c1ccc(NC(=O)CN2CCN(c3ccccc3)CC2)cc1
#45 Cc1ccc(-n2sc3cc(F)ccc3c2=O)c(C)c1
#46 COc1cccc(N/C=C/C(=O)c2ccc(C)cc2)c1
#47 O=S(=O)(NCc1ccccc1)NCc1ccccc1F
#48 CCc1cc(C(=O)OC)c(NC(=O)c2ccoc2C)s1

| Compound | 41 | 42 | 43 | 44 | 45 | 46 | 47 | 48 |
| --- | --- | --- | --- | --- | --- | --- | --- | --- |
| Rango complex inh | 1% | -1% | 8% | -2% | x | u | -3% | -1% |
| CCT modulator | -36* | 1 | -31* | -34* | -23 | -1 | -52* | -45* |
| Rango release inh | 15% | -12% | -7% | u | x | 15µM* | 7% | 11% |
| MmCpn inh | 0% | 0% | -4% | 0% | x | 0% | 2% | 1% |
